Measured values reported in patent US10442819B2, “Tricyclic compounds as inhibitors of mutant IDH enzymes” (Merck Sharp & Dohme Corp., priority 2014, dated 2019).

Chains of the proteins cited; added tags and fusions are not shown.
UniProt O75874, whole entry R132H: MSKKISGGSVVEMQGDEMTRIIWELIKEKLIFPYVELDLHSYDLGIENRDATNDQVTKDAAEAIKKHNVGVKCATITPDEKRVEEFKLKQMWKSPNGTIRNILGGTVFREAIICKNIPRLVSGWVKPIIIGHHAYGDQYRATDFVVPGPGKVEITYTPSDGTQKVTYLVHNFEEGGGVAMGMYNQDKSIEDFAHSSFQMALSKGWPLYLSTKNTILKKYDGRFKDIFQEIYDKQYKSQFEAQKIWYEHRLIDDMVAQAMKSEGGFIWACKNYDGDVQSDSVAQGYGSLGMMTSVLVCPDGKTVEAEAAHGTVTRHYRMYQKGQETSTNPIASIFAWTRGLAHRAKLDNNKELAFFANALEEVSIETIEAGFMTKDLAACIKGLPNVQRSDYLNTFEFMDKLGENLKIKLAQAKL

Target: R132H mutant IDH1 enzyme (Homo sapiens (Human), UniProt O75874, R132H)
Experiment: R132H IDH1 Enzymatic Assay
Format: biochemical
Settings: R132H mutant IDH1 enzyme 1.5 nM final; luminescence readout; read-out: IC50

Row | Structure (SMILES) | IC50 [µM]
1 | CC(C)(C)O[C@H]1CC[C@H](C(=O)N2Cc3cccnc3Nc3ccc(N4C5CO[C@H]6[C@@H]5OC[C@H]64)cc32)CC1 (stereo in doubt) [Example 325, 6-[(trans-4-tert-butoxycyclohexyl)carbonyl]-8-[(3R,3aR,6S,6aR)-hexahydro-3,6-epiminofuro[3,2-b]furan-7-yl]-6,11-dihydro-5H-pyrido[2,3-b][1,5]benzodiazepine] | 0.02
2 | O=C([C@H]1CC[C@H](NC2(C(F)(F)F)CC2)C1)N1Cc2cccnc2Nc2ccc(N3CCOCC3)cc21 (stereo in doubt) [Example 478, (1S,3S)-3-[(8-morpholin-4-yl-5,11-dihydro-6H-pyrido[2,3-b][1,5]benzodiazepin-6-yl)carbonyl]-N-[1-(trifluoromethyl)cyclopropyl]-cyclopentanamine] | 0.185
3 | O=C(C1CC(c2ccccc2)C1)N1Cc2cccnc2Nc2ccccc21 (centres unmarked) [Example 1, 6-[(3-Phenylcyclobutyl)carbonyl]-6,11-dihydro-5H-pyrido[2,3-b][1,5]benzodiazepine] | 0.073
4 | CO[C@H]1CC[C@H](C(=O)N2Cc3cccnc3Nc3ccc(C(=O)N4CCCC4)cc32)CC1 [Example 3, 6-[(Trans-4-methoxycyclohexyl)carbonyl]-8-(pyrrolidin-1-ylcarbonyl)-6,11-dihydro-5H-pyrido[2,3-b][1,5]benzodiazepine] | 0.273
5 | CO[C@H]1CC[C@@H](C(=O)N2Cc3cccnc3Nc3ccc(C(=O)N4CCCC4)cc32)CC1 [Example 4, 6-[(Cis-4-methoxycyclohexyl)carbonyl]-8-(pyrrolidin-1-ylcarbonyl)-6,11-dihydro-5H-pyrido[2,3-b][1,5]benzodiazepine] | 0.152
6 | CO[C@H]1CC[C@H](C(=O)N2Cc3cccnc3Nc3ccc(C4=COCCO4)cc32)CC1 [Example 9, 8-(5,6-Dihydro-1,4-dioxin-2-yl)-6-[(trans-4-methoxycyclohexyl)carbonyl]-6,11-dihydro-5H-pyrido[2,3-b][1,5]benzodiazepine] | 0.206
7 | CO[C@H]1CC[C@H](C(=O)N2Cc3cccnc3Nc3ccc(C4COCCO4)cc32)CC1 (stereo partly drawn) [Example 10, 8-(1,4-Dioxan-2-yl)-6-[(trans-4-methoxycyclohexyl)carbonyl]-6,11-dihydro-5H-pyrido[2,3-b][1,5]benzodiazepine] | 0.396
8 | CC(C)OCc1ccc2c(c1)N(C(=O)[C@H]1CC[C@H](OC(C)C)CO1)Cc1cccnc1N2 [Example 17, (8-(isopropoxymethyl)-5,11-dihydro-6H-benzo[b]pyrido[2,3-e][1,4]diazepin-6-yl)((2R,5S)-5-isopropoxytetrahydro-2H-pyran-2-yl)methanone] | 0.052
9 | COCC(OC)c1ccc2c(c1)N(C(=O)[C@H]1CC[C@H](OC(C)C)CO1)Cc1cccnc1N2 (stereo partly drawn) [Example 18, (8-(1,2-dimethoxyethyl)-5,11-dihydro-6H-benzo[b]pyrido[2,3-e][1,4]diazepin-6-yl)((2R,5S)-5-isopropoxytetrahydro-2H-pyran-2-yl)methanone] | 0.054
10 | CC(C)O[C@H]1CC[C@H](C(=O)N2Cc3cccnc3Nc3ccc(C4(C#N)CCOCC4)cc32)OC1 [Example 19, 4-(6-((2R,5S)-5-isopropoxytetrahydro-2H-pyran-2-carbonyl)-6,11-dihydro-5H-benzo[b]pyrido[2,3-e][1,4]diazepin-8-yl)tetrahydro-2H-pyran-4-carbonitrile] | 0.018
11 | CC(C)O[C@H]1CC[C@H](C(=O)N2Cc3cccnc3Nc3ccc(C4=CCOCC4)cc32)OC1 [Example 22, (8-(3,6-dihydro-2H-pyran-4-yl)-5,11-dihydro-6H-benzo[b]pyrido[2,3-e][1,4]diazepin-6-yl)((2R,5S)-5-isopropoxytetrahydro-2H-pyran-2-yl)methanone] | 0.009
12 | CC(C)O[C@H]1CC[C@H](C(=O)N2Cc3cccnc3Nc3ccc(C4=CCCOC4)cc32)OC1 [Example 23, (8-(5,6-dihydro-2H-pyran-3-yl)-5,11-dihydro-6H-benzo[b]pyrido[2,3-e][1,4]diazepin-6-yl)((2R,5S)-5-isopropoxytetrahydro-2H-pyran-2-yl)methanone] | 0.006
13 | CC(C)O[C@H]1CC[C@H](C(=O)N2Cc3cccnc3Nc3ccc(C4COC4)cc32)OC1 [Example 26, ((2R,5S)-5-isopropoxytetrahydro-2H-pyran-2-yl)(8-(oxetan-3-yl)-5,11-dihydro-6H-benzo[b]pyrido[2,3-e][1,4]diazepin-6-yl)methanone] | 0.015
14 | CC(C)O[C@H]1CC[C@H](C(=O)N2Cc3cccnc3Nc3ccc(C4COC5CC5O4)cc32)OC1 (stereo partly drawn) [Example 31, (8-(2,5-dioxabicyclo[4.1.0]heptan-3-yl)-5,11-dihydro-6H-benzo[b]pyrido[2,3-e][1,4]diazepin-6-yl)((2R,5S)-5-isopropoxytetrahydro-2H-pyran-2-yl)methanone] | 0.036
15 | CC(C)O[C@H]1CC[C@H](C(=O)N2Cc3cccnc3Nc3ccc(C4(C(F)F)CCOCC4)cc32)OC1 [Example 32, (8-(4-(difluoromethyl)tetrahydro-2H-pyran-4-yl)-5,11-dihydro-6H-benzo[b]pyrido[2,3-e][1,4]diazepin-6-yl)((2R,5S)-5-isopropoxytetrahydro-2H-pyran-2-yl)methanone] | 0.016
16 | CC(C)O[C@H]1CC[C@H](C(=O)N2Cc3cccnc3Nc3ccc(C4OCCOC4C)cc32)OC1 (stereo partly drawn) [Example 33, ((2R,5S)-5-isopropoxytetrahydro-2H-pyran-2-yl)(8-(3-methyl-1,4-dioxan-2-yl)-5,11-dihydro-6H-benzo[b]pyrido[2,3-e][1,4]diazepin-6-yl)methanone] | 0.046
17 | CC(C)O[C@H]1CC[C@H](C(=O)N2Cc3cccnc3Nc3ccc(C4OCCOC4C)cc32)OC1 (stereo partly drawn) [Example 34, ((2R,5S)-5-isopropoxytetrahydro-2H-pyran-2-yl)(8-(3-methyl-1,4-dioxan-2-yl)-5,11-dihydro-6H-benzo[b]pyrido[2,3-e][1,4]diazepin-6-yl)methanone] | 0.029
18 | CC(C)O[C@H]1CC[C@H](C(=O)N2Cc3cccnc3Nc3ccc(C4OCCOC4C)cc32)OC1 (stereo partly drawn) [Example 35, ((2R,5S)-5-isopropoxytetrahydro-2H-pyran-2-yl)(8-(3-methyl-1,4-dioxan-2-yl)-5,11-dihydro-6H-benzo[b]pyrido[2,3-e][1,4]diazepin-6-yl)methanone] | 0.069
19 | CC(C)O[C@H]1CC[C@H](C(=O)N2Cc3cccnc3Nc3ccc(C4CC4COC(F)F)cc32)OC1 (stereo partly drawn) [Example 36, (8-(2-((difluoromethoxy)methyl)cyclopropyl)-5,11-dihydro-6H-benzo[b]pyrido[2,3-e][1,4]diazepin-6-yl)((2R,5S)-5-isopropoxytetrahydro-2H-pyran-2-yl)methanone] | 0.012
20 | O=C(C1CCN(C2(C(F)(F)F)CC2)CC1)N1Cc2cccnc2Nc2ccc(N3CCOCC3)cc21 [Example 37, 8-morpholin-4-yl-6-({1-[1-(trifluoromethyl)cyclopropyl]piperidin-4-yl}carbonyl)-6,11-dihydro-5H-pyrido[2,3-b][1,5]benzodiazepine] | 0.021
21 | CC(C)(N1CCC(C(=O)N2Cc3cccnc3Nc3ccc(N4CCOCC4)cc32)CC1)C(F)(F)F [Example 38, 8-morpholin-4-yl-6-{[1-(2,2,2-trifluoro-1,1-dimethylethyl)piperidin-4-yl]carbonyl}-6,11-dihydro-5H-pyrido[2,3-b][1,5]benzodiazepine] | 0.049
22 | O=C(C1CCN(C2(C(F)(F)F)CCC2)CC1)N1Cc2cccnc2Nc2ccc(N3CCOCC3)cc21 [Example 39, 8-morpholin-4-yl-6-({1-[1-(trifluoromethyl)cyclobutyl]piperidin-4-yl}carbonyl)-6,11-dihydro-5H-pyrido[2,3-b][1,5]benzodiazepine] | 0.016
23 | CC(C)O[C@H]1CC[C@H](C(=O)N2Cc3cccnc3Nc3ccc(N4CC5(CCCOC5)C4)cc32)OC1 [Example 42, (8-(6-oxa-2-azaspiro[3.5]nonan-2-yl)-5,11-dihydro-6H-benzo[b]pyrido[2,3-e][1,4]diazepin-6-yl)((2R,5S)-5-isopropoxytetrahydro-2H-pyran-2-yl)methanone] | 0.05
24 | CC(C)O[C@H]1CC[C@H](C(=O)N2Cc3cccnc3Nc3ccc(N4CC5COCC(C4)O5)cc32)OC1 [Example 47, (8-(3,9-dioxa-7-azabicyclo[3.3.1]nonan-7-yl)-5,11-dihydro-6H-benzo[b]pyrido[2,3-e][1,4]diazepin-6-yl)((2R,5S)-5-isopropoxytetrahydro-2H-pyran-2-yl)methanone] | 0.054
25 | CC(C)O[C@H]1CC[C@H](C(=O)N2Cc3cccnc3Nc3ccc(N4C[C@]5(C)C[C@H]4CO5)cc32)OC1 [Example 48, ((2R,5S)-5-isopropoxytetrahydro-2H-pyran-2-yl)(8-((1S,4S)-1-methyl-2-oxa-5-azabicyclo[2.2.1]heptan-5-yl)-5,11-dihydro-6H-benzo[b]pyrido[2,3-e][1,4]diazepin-6-yl)methanone] | 0.026
26 | CC(C)O[C@H]1CC[C@H](C(=O)N2Cc3cccnc3Nc3ccc(C4CCN(C(=O)OC(C)(C)C)C4)cc32)OC1 (stereo partly drawn) [Example 49, tert-butyl 3-(6-((2R,5S)-5-isopropoxytetrahydro-2H-pyran-2-carbonyl)-6,11-dihydro-5H-benzo[b]pyrido[2,3-e][1,4]diazepin-8-yl)pyrrolidine-1-carboxylate] | 0.005
27 | O=C(C1CCN(CC(F)(F)F)C1)N1Cc2cccnc2Nc2ccc(N3CCOCC3)cc21 (centres unmarked) [Example 50, 8-morpholin-4-yl-6-{[1-(2,2,2-trifluoroethyl)pyrrolidin-3-yl]carbonyl}-6,11-dihydro-5H-pyrido[2,3-b][1,5]benzodiazepine] | 0.686
28 | O=C([C@H]1CCCN(CC(F)(F)F)C1)N1Cc2cccnc2Nc2ccc(N3CCOCC3)cc21 [Example 51, 8-morpholin-4-yl-6-{[(3S)-1-(2,2,2-trifluoroethyl)piperidin-3-yl]carbonyl}-6,11-dihydro-5H-pyrido[2,3-b][1,5]benzodiazepine] | 0.662
29 | CO[C@H]1CC[C@H](C(=O)N2Cc3cccnc3Nc3ccc(N4CCOCC4)cc32)CC1 [Example 52, 6-[(Trans-4-methoxycyclohexyl)carbonyl]-8-morpholin-4-yl-6,11-dihydro-5H-pyrido[2,3-b][1,5]benzodiazepine] | 0.654
